Assay results from patent US20070059364A1, “Active substance combination comprising a compound with npy receptor affinity and a compound with 5-ht6 receptor affinity” (Laboratorios Del Dr. Esteve S.A., priority 2003, published 2007).
Some compounds may have been tested in ways that are not shown here.

The chains behind the UniProt entries cited, without tags or fusion partners.
UniProt P50406, whole entry: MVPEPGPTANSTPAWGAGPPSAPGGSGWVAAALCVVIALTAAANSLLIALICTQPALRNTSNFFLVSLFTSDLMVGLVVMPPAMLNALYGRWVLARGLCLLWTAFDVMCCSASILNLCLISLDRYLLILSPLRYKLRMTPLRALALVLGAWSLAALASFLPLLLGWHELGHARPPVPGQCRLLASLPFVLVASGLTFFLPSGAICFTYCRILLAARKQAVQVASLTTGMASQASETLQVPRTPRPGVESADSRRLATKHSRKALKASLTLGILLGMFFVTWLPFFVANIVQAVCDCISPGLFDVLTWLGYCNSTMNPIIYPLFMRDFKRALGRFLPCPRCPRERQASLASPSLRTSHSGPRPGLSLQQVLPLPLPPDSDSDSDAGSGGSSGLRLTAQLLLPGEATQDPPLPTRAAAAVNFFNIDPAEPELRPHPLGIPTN

Molecular target: recombinant human 5HT6 receptor (Homo sapiens, UniProt P50406)
Assay: Binding to the 5HT6 serotonin receptor, [3H]-LSD, HEK-293 cell membranes
Details: compounds of general formula (Id), Table 1d

6-Chloro-1-[1-(naphthalene-1-sulfonyl)-piperidin-4-yl]-1,4-dihydro-benzo[d][1,3]oxazin-2-one
% Inhibition 10^−6 M: 72.3%
